Results published in patent US8946224B2, “Substituted [1,2,4]triazolo[4,3-A]pyrazines for medicaments and pharmaceutical compositions” (Redx Pharma Limited, priority 2010, dated 2015).

Amino acid sequences for entries named in this document (tags omitted).
UniProt P27338, whole entry: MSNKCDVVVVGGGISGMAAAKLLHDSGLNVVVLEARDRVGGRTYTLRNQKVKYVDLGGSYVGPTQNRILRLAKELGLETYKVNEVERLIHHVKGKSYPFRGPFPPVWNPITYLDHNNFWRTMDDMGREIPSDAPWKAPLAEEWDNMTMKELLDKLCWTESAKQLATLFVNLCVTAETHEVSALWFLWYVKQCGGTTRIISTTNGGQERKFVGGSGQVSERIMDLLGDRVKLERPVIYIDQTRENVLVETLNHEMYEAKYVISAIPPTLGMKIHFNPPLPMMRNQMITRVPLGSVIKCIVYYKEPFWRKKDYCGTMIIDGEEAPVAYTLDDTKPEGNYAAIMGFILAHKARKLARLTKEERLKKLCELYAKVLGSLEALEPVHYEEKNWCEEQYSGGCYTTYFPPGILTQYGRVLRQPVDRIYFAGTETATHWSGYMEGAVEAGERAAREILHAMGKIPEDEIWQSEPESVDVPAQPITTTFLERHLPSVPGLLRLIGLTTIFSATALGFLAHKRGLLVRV

Biological target: recombinant human MAO-B (Homo sapiens, UniProt P27338)
Test: MAO-B inhibition, kynuramine substrate, LC-MS/MS of 4-hydroxyquinoline (Example 99)
Type: biochemical

## N[C@@H]1C[C@H]1c1ccccc1 (racemic) [Tranylcypromine, tranylcypromine, reference compound]
  Mean % Activity Remaining (n = 2): 0%
